Experimental data from PMC2935290 (Journal of immunology (Baltimore, Md. : 1950), 2010).
Positions count from the first letter of the chain named. pIC50: −log10 of the molar value.

Assays:
HLA-DPB1*0402 = biological target: T1, HLA-DPB1*0402 (Homo sapiens, UniProt P04440+P20036, A65V/A84D/A85E/L207M); assay: biochemical; format: binding
T1 sequence (P04440 30-258 A65V/A84D/A85E): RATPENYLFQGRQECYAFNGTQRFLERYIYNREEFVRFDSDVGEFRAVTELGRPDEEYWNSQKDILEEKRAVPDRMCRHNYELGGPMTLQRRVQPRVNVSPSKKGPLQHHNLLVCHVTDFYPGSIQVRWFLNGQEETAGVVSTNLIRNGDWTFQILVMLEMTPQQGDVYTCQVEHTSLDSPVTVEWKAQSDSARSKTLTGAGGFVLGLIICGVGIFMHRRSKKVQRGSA
T1 sequence (P20036 29-260): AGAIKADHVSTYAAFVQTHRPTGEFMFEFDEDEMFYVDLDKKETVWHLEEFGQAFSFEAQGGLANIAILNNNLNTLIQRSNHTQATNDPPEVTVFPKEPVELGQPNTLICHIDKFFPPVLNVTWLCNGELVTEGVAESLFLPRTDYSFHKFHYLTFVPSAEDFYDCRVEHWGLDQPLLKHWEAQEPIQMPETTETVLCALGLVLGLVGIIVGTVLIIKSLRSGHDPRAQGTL

HLA-DPB1*0201 = biological target: T2, HLA-DPB1*0201 (Homo sapiens, UniProt P04440+P20036, A65V/A84D/A85E/K98E); assay: biochemical; format: binding
T2 sequence (P04440 30-258 A65V/A84D/A85E/K98E): T1 sequence (P04440 30-258 A65V/A84D/A85E) with K69E
T2 sequence (P20036 29-260): T1 sequence (P20036 29-260)

CC(C)C[C@H](NC(=O)[C@H](CC(=O)O)NC(=O)[C@H](CO)NC(=O)CNC(=O)[C@H](Cc1c[nH]cn1)NC(=O)[C@@H](NC(=O)[C@@H](NC(=O)[C@H](CS)NC(=O)[C@H](C)NC(=O)[C@H](CCCCN)NC(=O)[C@H](C)NC(=O)[C@H](CC(=O)O)NC(=O)[C@H](CCCNC(=N)N)NC(=O)[C@@H]1CCCN1C(=O)[C@@H](N)CC(N)=O)C(C)C)C(C)C)C(=O)N[C@@H](CCCCN)C(=O)O
pIC50 (HLA-DPB1*0402): 5.19
pIC50 (HLA-DPB1*0201): 5.63
